Tested on: osteoarthritis pain
Test: Four daily dose treatments of osteoarthritis, efficacy (Example 11)
Type: in vivo, human
Details: before capsaicin treatment, on Tramadol 50-100 mg tid; pain scale

**Q.** Which results are given for COc1cccc(C2(O)CCCCC2CN(C)C)c1 (centres unmarked)?
**A.** Pain level: approximately 4; Sharp shooting pains, pain level: 8-9

Reference: US11737994B2, “Topical compositions for pain relief, manufacture and use” (priority 2014, dated 2023)
